Measured values taken from ChEMBL document CHEMBL5131428, “Discovery of potent antiproliferative agents from selected oxygen heterocycles as EGFR tyrosine kinase inhibitors from the U.S. National Cancer Institute database by in silico screening and bioactivity evaluation” (Bioorg Med Chem Lett, 2022).

Target: Epidermal growth factor receptor (Homo sapiens, UniProt P00533)
Experiment: Potency index, ratio of Erlotinib IC50 to test compound IC50 for inhibition of EGFR tyrosine kinase (unknown origin)

COc1ccc(-c2cc(=O)cc(-c3ccc(OC)cc3)o2)cc1
Ratio IC50: > 10
